The values below are quoted from earlier work in patent publication US8759371B2, “Heterocyclic compounds and their uses” (Amgen Inc., priority 2010, dated 2014).

By UniProt entry, the sequences of proteins in these tests, tags left out.
UniProt P42338, whole entry, species assumed: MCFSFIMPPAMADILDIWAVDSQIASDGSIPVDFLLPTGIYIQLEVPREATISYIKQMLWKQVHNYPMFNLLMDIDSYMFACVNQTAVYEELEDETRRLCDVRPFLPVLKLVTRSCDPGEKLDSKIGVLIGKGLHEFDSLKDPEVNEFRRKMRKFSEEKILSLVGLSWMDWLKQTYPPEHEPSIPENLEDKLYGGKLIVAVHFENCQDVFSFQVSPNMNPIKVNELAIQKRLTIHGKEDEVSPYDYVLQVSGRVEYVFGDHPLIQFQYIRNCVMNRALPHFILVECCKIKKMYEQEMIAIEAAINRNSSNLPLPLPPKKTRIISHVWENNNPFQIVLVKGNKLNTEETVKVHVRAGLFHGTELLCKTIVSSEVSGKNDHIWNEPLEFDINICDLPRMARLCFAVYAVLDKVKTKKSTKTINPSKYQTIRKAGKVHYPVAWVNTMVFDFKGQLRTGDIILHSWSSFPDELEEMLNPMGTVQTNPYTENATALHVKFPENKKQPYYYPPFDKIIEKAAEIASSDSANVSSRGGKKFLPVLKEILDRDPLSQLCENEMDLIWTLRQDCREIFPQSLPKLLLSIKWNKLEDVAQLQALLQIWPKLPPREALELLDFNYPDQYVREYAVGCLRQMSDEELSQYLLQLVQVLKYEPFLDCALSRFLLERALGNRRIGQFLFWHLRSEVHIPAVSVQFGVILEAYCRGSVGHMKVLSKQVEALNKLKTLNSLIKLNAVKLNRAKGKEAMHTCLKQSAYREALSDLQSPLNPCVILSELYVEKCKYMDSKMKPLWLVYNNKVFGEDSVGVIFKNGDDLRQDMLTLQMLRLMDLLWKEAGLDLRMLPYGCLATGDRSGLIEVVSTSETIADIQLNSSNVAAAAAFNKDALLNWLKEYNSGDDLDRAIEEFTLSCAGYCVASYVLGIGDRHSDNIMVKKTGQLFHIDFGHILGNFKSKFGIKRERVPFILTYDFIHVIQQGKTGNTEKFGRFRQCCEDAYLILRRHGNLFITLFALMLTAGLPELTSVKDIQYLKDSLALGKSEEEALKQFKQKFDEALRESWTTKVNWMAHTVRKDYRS

The target in this data set is p110β (Homo sapiens, UniProt P42338). To be noted: quantity not given; read-out: potency on beta.

Consider `Cc1cc(C(C)Nc2ccccc2)c2nc(N3CCOCC3)cc(=O)n2c1` (stereo not shown) [TGX-221], for which the IC50 is 7 nM.
